Experiment: Aerosol purity of condensation aerosol vaporized from drug-coated substrate in substrate screening apparatus (HPLC of filter extract)
Assay type: physicochemical
From the text: The substrate screening apparatus 400 is made of a machined plastic (polyoxymethylene, DELRIN® Acetal Resin, DuPont, Wilmington, DE) block 402 with a 2 cm^2 cross-sectional area for mounting a substrate 412. Block 402 includes a first airway 404 extending from first inlet 414 to outlet 422. Block 402 also include a second airway 406 extending from second inlet 416 to substrate 412, where it typically joins the first airway. The substrate 412 is mounted in the substrate screening apparatus 400 across two electrodes 420. A first air flow 414 is established in first airway 404 and a second air flow 416 is established in second airway 406 such that the second air flow 416 passes from the second airway 406 to first airway 404 through holes in the substrate 412. While providing air flows 414 and 416, the substrate 412 is heated, typically by discharging a capacitor (not shown) across the substrate 412. In a one embodiment, the flow of air passing through holes in the substrate 412 is in a direction orthogonal to that of air flow 414. Substrate 412 is coated with a drug composition film. The substrate 412 is heated to vaporized all or a portion of the drug composition. The vaporized drug subsequently cools and condenses to form a condensation aerosol that is carried to the outlet by air flow 414, joined by air flow 416). Accordingly, the condensation aerosol is emitted from the outlet 422.
The test substrates were then coated with a drug composition. The drug was typically dissolved in a volatile organic solvent (e.g., dichloromethane/methanol mixture or acetone or other suitable organic solvent) and then spray-coated onto the test substrates using an automated spray coater. Coating parameters, such as the drug concentration in the coating solution, solution flow rate, were selected to obtain a uniform drug coating of the desired coating density (i.e., mass/area).
Total air flow through the substrate screening apparatus was set by providing air flows 414 and 416 at a desired ratio. […]

For `CCN(C(C)=O)c1cccc(-c2ccnc3c(C#N)cnn23)c1`, the aerosol purity (all four test conditions: perforated polyimide film 3:1 and non-perforated heat-passivated stainless steel, 380° C. and 420° C.) was over 99.4%.
With paroxetine fumarate the aerosol purity (non-perforated heat-passivated 304 stainless steel, 320° C. and 400° C., 100% air flow across) was “poor”.
Work on tizanadine yielded an aerosol purity (perforated polyimide film, across:bottom 3:1 and 1:3, 350° C.) of over 98%.

— US12138383B2, “Heating unit for use in a drug delivery device” (ALEXZA PHARMACEUTICALS, INC., priority 2007, dated 2024)
